According to patent publication US20260115267A1, “METHODS OF USING ANTI-EGF ANTIBODIES TO AUGMENT THE ACTIVITY OF BRAF AND KRAS INHIBITORS” (In3Bio Ltd., priority 2021, published 2026):
Like-named read-outs stand apart in the source and are kept apart here.

What was measured:
[1] = tested on: EGFR-wt, head and neck cancer cell lines, and subcutaneous tumors; details: cited from earlier work
[2] = tested on: pErk1/2, pAkt, EGFR, STAT3, AXL in EGFR-mut cells; details: cited from earlier work
PC9 xenografts = details: cited from earlier work
[3] = cited from earlier work
[4] = tested on: pEGFR(Tyr1068), pAKT(Ser473), pERK(Thr 202/Tyr 204) in HT29 cells; experiment: Western blot of total and phosphorylated EGFR, AKT, ERK in HT29 cells with EGF, 2 hours (FIG. 3); format: cell-based; details: HT29, presence of EGF, 0.05 μM
Procedure: C in the first lane stands for a control, non-treated cell line sample. The second lane is the same control cell receiving EGF at 0.05 µM and in combination with EGF, cells were separately treated with antibody (anti-IN01 antibodies recognizing EGF), Cetuximab, Encorafenib, the combination antibody (anti-IN01) and Encorafenib, and the combination Cetuximab and Encorafenib.
The effects of anti-IN01, alone and in combination with encorafenib was compared to cetuximab alone, encorafenib alone and a combination of cetuximab and encorafenib at a 0.05 μM concentration of each in HT29 cells in the presence of EGF for 2 hours. The changes of total and phosphorylated proteins that indicate cell viability were determined by Western blot in duplicate (FIG. 3) At this concentration, the there was some reduction in signal for pERK, pAKT compared to ERK and AKT for all combinations and inhibitors alone. […] C in the first lane stands for control, non-treated cell line sample. Second lane is same control cell receiving EGF

HT29 cells = experiment: Emergence of resistance to encorafenib in HT29 cells (FIGS. 5-8); format: cell-based; details: antibody added to culture medium with encorafenib 10 μM; 0.1 and 1.0 ng/mL EGF; 90 days
Procedure: FIGS. 5A-B are graphs that show the emergence of resistance to Encorafenib in the HT29 cell line across an incubation time of 3 weeks and measured by the percentage of cell viability. Cells were treated with 5 μM Encorafenib (FIG. 5A) or 10 μM Encorafenib (FIG. 5B) and incubated with EGF at 0.0 ng/mL, 0.1 ng/mL, Ing/mL, and 10 ng/mL. The percentage of positive wells having viable cells rose and leveled off during weeks 1-3, with higher percentages of positive wells associated with higher concentrations of EGF (FIG. 5A).
FIGS. 6A-B are graphs that show the emergence of resistance to Encorafenib in the HT29 cell line across an incubation time of 15 weeks and measured by the percentage of cell viability. […]
FIGS. 7A-B are graphs that show the emergence of resistance to Encorafenib in the HT29 cell line across an incubation time of 15 weeks and measured by the percentage of cell viability. […]
FIGS. 8A-B are graphs that show the emergence of resistance to 10 μM Encorafenib in the HT29 cell line with an incubation time of 90 days and measured by the percentage of tumor cell-free wells. […]

Substance: Cetuximab: anti-EGFR monoclonal antibody
- induction of apoptosis and tumor regression [1]: amplify
- effect on EGFR downstream signaling ([2]; H3255 or DFCILU-011): relatively little effect
- ligand-induced EGFR, Erk1/2, and Akt phosphorylation ([2]; PC9 and H1975 cells): prevent
- levels of total EGFR ([2]; after 1 to 2 hours of incubation, PC9, H1975 or H3255): markedly decrease
- enhancement of the effects of gefitinib (PC9 xenografts): failed to enhance
- objective response ([3]; patients with KRAS mutation): none
- objective response ([3]; patients with wild-type KRAS tumor status): 27 of 66
- median overall survival ([3]; wild-type KRAS tumor status versus KRAS mutations): significantly longer
- signal between EGFR and pEGFR [4]: most pronounced reduction in signal
- emergence of resistant clones to encorafenib (HT29 cells): delay observed
